According to patent US9212147B2, “Dihydroxy aromatic heterocyclic compound” (TAKEDA PHARMACEUTICAL COMPANY LIMITED, priority 2011, dated 2015):

Key:
[1] = target: HEK293 cells that stably express human DAAO (Homo sapiens (Human), UniProt P14920); experiment: Inhibitory activity test at cellular level using DAAO-expressing cells; format: cell-based; conditions: D-alanine substrate
Procedure: HEK293 cells that stably express human DAAO were suspended in Cellbanker solution at 5×10^6 cells/ml and cryopreserved at −80° C. At the time of measurement, the cells were centrifuged at 1000 rpm for one min and the Cellbanker solution was removed. […] A 4% DMSO buffer solution (50 mM sodium phosphate [pH 7.5], 0.02% CHAPS) of the test compound (4 μL) was added to a 384-well black, low volume plate, the cell suspension (4 μL) was added, and the mixture was incubated at room temperature for 15 min.
Reverse transcription was performed on human normal kidney tissue-derived RNA (Clontech Corp.) using reverse transcriptase (SuperScriptIII, Life Technologies Corporation) and oligo (dT) primer (Life Technologies Corporation) according to the protocol of the kit (Life Technologies Corporation) and cDNA was synthesized. Then, using human DAAO_HindIII_F represented by Sequence No. 1 and human DAAO_BamHI_R represented by Sequence No. 2, a PCR reaction (35 cycles of 98° C. for 15 sec, 55° C. for 15 sec and 68° C. for 1 min 30 sec) was performed using DNA polymerase (PrimeSTAR, TAKARA BIO INC.) and cDNA obtained as above as a template. […] The PCR product was cloned in a cloning vector (pCR2.1-TOPO Cloning Kit, Life Technologies Corporation). The sequence of the insert was determined by the dideoxy sequence method (BigDye Terminator v3.1 Cycle Sequencing Kit; Life Technologies Corporation).
To express the ORF full length of DAAO as a protein, the above-mentioned vector was subjected to an enzyme reaction with restriction enzymes HindIII and BamHI at 37° C. for 3 hr, and the restriction enzyme-treated DNA fragment was purified. The DNA fragment containing the ORF was cloned to HindIII and BamHI sites present in the multiple cloning site of the expression vector (pcDNA3.1(+): Invitrogen Co.), whereby an expression plasmid (hDAAO/pcDNA3.1) was constructed.
Then, HEK293 cells were transfected to obtain the forced expression cell line. […]

[2] = target: recombinant human DAAO protein (Homo sapiens (Human), UniProt P14920); experiment: DAAO inhibitory activity test (H2O2 production, Amplex red/HRP fluorescence); format: biochemical; conditions: recombinant human DAAO 15 nM, D-alanine substrate, FAD, pH 7.5
Procedure: The DAAO inhibitory activity was measured by assaying the amount of hydrogen peroxide (H2O2) produced by reacting DAAO protein with flavin adenine dinucleotide (FAD) and D-alanine. The amount of H2O2 was determined by measuring the fluorescence generated on conversion of Amplex red (manufactured by Invitrogen Co.) into resorufin by the reaction of H2O2 with horseradish peroxidase (HRP).
Escherichia coli strain BL21(DE3) (manufactured by Novagen) was transformed with the constructed human DAAO expression vector, inoculated into LB culture medium containing kanamycin at a final concentration of 20 μg/mL, and shake-cultured at 37° C. overnight. The multiplied transformant was inoculated into Terrific Broth containing kanamycin at a final concentration of 20 μg/mL, and shake-cultured at 37° C. until it reached OD600=3.0. Thereafter, the culture was cooled to 30° C., and expression was induced with 1 mM IPTG. After 20 hours, bacterial pellets were recovered by centrifugation.
The bacterial pellets recovered as above were suspended in a lysis buffer (17 mM sodium pyrophosphate buffer pH 8.3, 100 μM FAD, 1 mM sodium benzoate, 1 mM PMSF, 14 mM β-mercaptoethanol, 0.2 mg/mL lysozyme) and the bacteria were fractured by sonication. The sonicated liquid was centrifuged and the supernatant was recovered. To remove the nucleic acid, to this supernatant were sequentially added NaCl (final concentration 0.5M) and 0.05% ethyleneimine (polymer) and, after thorough mixing, the supernatant was recovered by centrifugation. The supernatant was heat treated at 55° C. for 15 min, and the supernatant was recovered by centrifugation. To this supernatant was added 40% saturated ammonium sulfate and, after thorough mixing, the salt precipitate was recovered by centrifugation. The obtained salt precipitate was redissolved in buffer A (50 mM potassium phosphate buffer pH 7.4, 10% glycerol, 200 μM sodium benzoate, 10 μM FAD, 20% saturated ammonium sulfate), and filtered through a 0.22 μm filter (manufactured by Millipore). […]

[3] = test system: MK-801 (dizocilpine)-induced impaired spontaneous alternation behavior; conditions: male ddY mice, 0.03-0.1 mg/kg oral administration, MK-801 0.15 mg/kg i.p., Y-maze 8 min

Row | SMILES | IC50 [1] [nM] | IC50 [2] [nM] | spontaneous alternation rate relative to the Control group [3]
1 | COc1ccc(CCc2cc(O)c(=O)[nH]n2)cc1 [Example 14] | 10 | 2.9 | –
2 | COc1cccc(CCc2cc(O)c(=O)[nH]n2)c1 [Example 16] | 8.8 | 2.1 | –
3 | O=c1[nH]nc(CCc2cc(F)cc(F)c2)cc1O [Example 24, 6-[2-(3,5-difluorophenyl)ethyl]-4-hydroxypyridazin-3(2H)-one] | – | – | significantly increased
4 | COc1cc(CCc2cc(O)c(=O)[nH]n2)cc(OC)c1 [Example 23] | 25 | 13 | –
